These results are taken from patent publication US7361680B2, “Indole compounds useful for the treatment of cancer” (The Regents of the University of California, priority 1999, dated 2008).

Values joined by “and” are separate entries in the source; they are usually repeats but may differ in a detail not shown here. Identical values can stand only once.

Experiment [1] concerns primary CLL cells. In words: Activity screening, MTT viability, primary CLL cells. The experiment is classed as cell-based. Particulars: three days, quantity not given, repeat runs (1st), (2nd). Here is the method: They were plated in 96-well plates at 100,000 cells/well. Titrated concentrations of the compound to be tested were added to the culture medium. The cells were incubated three days at 37° C., 5% CO2. Viability of the cells was assayed by standard MTT assay. Each drug concentration was done in duplicate.

Experiment [2] has as its system CD36, a marker of PPAR-γ activation. Nature of the experiment: Surface expression of CD36 in THP-1 monocytic cells, flow cytometry. It is filed as cell-based, human. The conditions noted are these: THP-1, three days of culture, with or without 40 ng TPA; FIG. 14.

On to `CCc1cccc2c3c([nH]c12)C(CC)(CC(C)=O)OCC3` (centres unmarked) [Compound 13, 1-(1,8-Diethyl-1,3,4,9-tetrahydropyrano[3,4-b]indol-1-yl)-propan-2-one], for which it took 686 µM to reach a half-maximal effect in experiment [1] (CLL cell, 72 h) (EC50).
Still for that read-out and setting: in the case of `CCc1cccc2c3c([nH]c12)C(CC)(CC)OCC3` [Compound 5, 1,1,8-Triethyl-1,3,4,9-tetrahydropyrano[3,4-b]indole] it was > 1000 µM.
On to `CCc1cccc2c3c([nH]c12)[C@](CC)(CC(=O)O)OCC3` [S-etodolac], for which the “expression of CD36” value in experiment [2] is “caused the expression of CD36”.
On to `CCc1cccc2c3c([nH]c12)C(CC)(CCOC)OCC3` (centres unmarked) [Compound 2, 1,8-Diethyl-1-(2-methoxyethyl)-1,3,4,9-tetrahydropyrano[3,4-b]indole], for which the EC50 in experiment [1] (CLL cell, 72 h) is > 1000 µM.
Same read-out and setting: in the case of `CCc1cccc2c3c([nH]c12)C(CC)(CCO)OCC3` (centres unmarked) [Compound 1, 2-(1,8-Diethyl-1,3,4,9-tetrahydropyrano[3,4-b]indol-1-yl)-ethanol] it was 177 µM.
In the case of `CCc1cccc2c3c([nH]c12)[C@@](CC)(CC(=O)O)OCC3` [R-etodolac], the EC50 in experiment [1] (CLL cell, 72 h) is 174 µM; in experiment [1] it was 263 µM. Besides, the “expression of CD36” value in experiment [2] is listed as “caused the expression of CD36”.
In the case of `CCc1cccc2c3c([nH]c12)C(CC)(CC=N)OCC3` (centres unmarked) [Compound 7, 2-(1,8-Diethyl-1,3,4,9-tetrahydropyrano[3,4-b]indol-yl)-ethylideneamine], in experiment [1] (CLL cell, 72 h), the 50% effective concentration (EC50) worked out at 714 µM.
`CCc1cccc2c3c([nH]c12)C(CC)(CC(N)=O)OCC3` (centres unmarked) [Compound 6, 2-(1,8-Diethyl-1,3,4,9-tetrahydropyrano[3,4-b]indol-1-yl)-acetamide]: the EC50 is 105 µM in experiment [1] (CLL cell, 72 h); 200 µM and 190 µM and 160 µM in experiment [1].

Broadly, the EC50 is the concentration giving half of the maximal effect. Lower therefore signals higher potency in that assay.
